Reference: patent US20250346630A1 (AGENCY FOR SCIENCE TECHNOLOGY AND RESEARCH, published 2025)

By UniProt entry, the sequences of proteins in these tests, tags left out. Residues count along the entry.
UniProt P06730, 2-217: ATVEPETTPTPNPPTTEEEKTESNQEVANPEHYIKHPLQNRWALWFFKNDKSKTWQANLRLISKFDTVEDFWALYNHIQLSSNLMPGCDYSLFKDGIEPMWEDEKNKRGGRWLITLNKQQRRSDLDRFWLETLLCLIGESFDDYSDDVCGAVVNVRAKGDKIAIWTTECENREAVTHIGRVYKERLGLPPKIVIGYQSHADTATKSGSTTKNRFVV
UniProt P12004, whole entry: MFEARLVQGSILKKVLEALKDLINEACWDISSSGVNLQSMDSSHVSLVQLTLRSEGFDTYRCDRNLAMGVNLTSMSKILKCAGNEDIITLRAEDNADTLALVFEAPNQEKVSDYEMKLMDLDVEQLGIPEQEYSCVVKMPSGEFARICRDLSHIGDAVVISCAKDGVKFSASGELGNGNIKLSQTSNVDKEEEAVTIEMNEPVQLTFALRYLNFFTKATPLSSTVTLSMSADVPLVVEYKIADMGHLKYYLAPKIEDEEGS

Tests used:
full-length human eIF4E [1] = target: T1, full-length human eIF4E (human, UniProt P06730 2-217); test: competitive fluorescence anisotropy, displacement of m7GTP^FAM from eIF4E (apparent Kd); m^7GTP^FAM tracer: competition at the cap-binding site
T1 construct: mature; Used here for the purified full-length protein (anisotropy, ITC, crystals) and for endogenous eIF4E of HEK293 cells in pull-downs; also called cellular eIF4E

[2] = target: T2, proliferating cell nuclear antigen (PCNA) (human, UniProt P12004 1-261); test: direct fluorescence anisotropy titration of PCNA against 50 nM labelled tracer
T2 construct: Used here for the purified protein (anisotropy) and for endogenous PCNA of HEK293 and A375 cells in anti-FLAG pull-downs

full-length human eIF4E [3] = target: T1, full-length human eIF4E; test: competitive fluorescence anisotropy, displacement of m7GTP^FAM from eIF4E (apparent Kd); m^7GTP^FAM competitive anisotropy, cap-binding site, non-reducing
full-length human eIF4E [4] = target: T1, full-length human eIF4E; test: isothermal titration calorimetry; the sentence cites Table 3, which prints 36.3 ± 17.0

B1: EE-09 (peptide)
peptide: ACEMGYFGNCG
modifications: disulphide between the two Cys; C-terminal amide; N-terminus printed NH2- (methods: all peptides N-acetylated)
Question: With B1 as the binder, how does the Kd (full-length human eIF4E [1]) read?
Answer: The Kd was 4860 nM.

B2: PCNA tracer peptide Ac-SAVLQKKITDYFHPKK-K (5-carboxylysine)-NH2 (peptide)
peptide: SAVLQKKITDYFHPKKK
modifications: N-terminal acetyl; last Lys printed as K (5-carboxylysine), the labelled residue; C-terminal amide
Question: How did the Kd [2] turn out when B2 was run?
Answer: Its Kd is 150 nM.

B3: EE-02 (peptide)
peptide: ACEMGFFQDCG
modifications: disulphide C2-C10; C-terminal amide; N-terminus printed NH2- (methods: all peptides N-acetylated)
notes: also called constrained macrocyclic peptide EE-02
Question: Which Kd (full-length human eIF4E [3]) does the source give for B3 here?
Answer: Its Kd is 406 nM.

B4: VH-DiF^CAP-01 (purified, His-tagged) (designed binder)
VH: MSEVQLVESGGGLVQPGGSLRLSSAISGFSISSTSIDWVRQAPGKGLEWVARISPSSGSTSYADSVKGRFTISADTSKNTVYLQMNSLRAEDTAVYYTGRPLPEMGFFTNIPAMVDYRGQGTLVTVSSGAA
notes: also called peptide aptamer 1 (eIF4E); not shown: C-terminal six-histidine tag from pET-22b(+)
Question: B4 was tested. Which Kd (full-length human eIF4E [4]) did it give?
Answer: The Kd was 35.3 nM.
